From patent EP3666770A1, “NOVEL HETEROCYCLIC COMPOUNDS AS CDK8/19 INHIBITORS” (Joint Stock Company "Biocad", priority 2017, dated 2019)

How the values were obtained:
[1] = tested on: Caco-2 cell monolayer; assay: Permeability through Caco-2 cell monolayer; format: in vitro ADME; conditions: efflux = Papp B-A / Papp A-B
Experimental: Estimation of permeability through Caco-2 cell monolayer enables assessment of the ability of the substances to penetrate through biological membranes by means of both active and passive transport.
Intestinal epithelial cells Caco-2 were grown on filter inserts (pore size 0.4 µm, BD Falcon with High Density) for 21 days; monolayer integrity was then checked using Lucifer Yellow (Sigma-Aldrich, USA) according to the standard protocol. In A->B transfer ("intestinal lumen" - "blood stream" transfer), solutions of the test substances in buffer, pH 6.5 (HBSS, 10 mM HEPES, 15 mM glucose) at a concentration of 10 µM were added to the upper chamber; whereas the lower chamber was filled with buffer, pH 7.4 (HBSS, 10 mM HEPES, 15 mM Glucose, 1% BSA). […]
After 2 hours incubation at 37 ° C under an atmosphere containing 5% CO2, the amounts of the test substances in the upper and lower chambers were measured by HPLC using an Agilent1200 HPLC system (Agilent, USA), proteins were preliminarily precipitated with acetonitrile. […] The peak areas corresponding to the compounds were detected on chromatograms.
The value was calculated using the formula: efflux = Papp B−A /Papp A−B , [formula] where • Papp A-E - the value of permeability direct analysis A→ B; • Papp B-A - the value of the permeability of the reverse analysis B→ A.

[2] = tested on: HepG2 cells; assay: General cytotoxicity test on HepG2 cells; format: cell-based; conditions: 72 h incubation; 200 to 0.78 µM; average values of several tests; read-out: Hep-G2 CC50, mkM
Experimental: Cell viability was assessed using the above method. Table 6. […] The results are presented as average values of activity obtained in several tests.

[3] = Enzyme stability in human liver S9 fractions; format: in vitro ADME; conditions: 0,5 mg/mL pooled human liver S9 fractions; 10 µM compound; 37°C; pH=7,4
Experimental: Measuring of candidates' enzyme stability enabled estimation of the stability of the present compounds towards the action of enzymes in human liver S9 fractions.
Enzyme degradation rate was measured by incubating the reaction mixture in a dry block thermostat at 37°C, said reaction mixture comprising 0,5 mg/mL of pooled human liver S9 fractions (XenoTech, USA, cat#H0610), 10 µM compound, 2 mM β-nicotinamide adenine dinucleotide (Carbosynth, UK, cat#NN10871) and 4 mM magnesium chloride in 0,1 M sodium-phosphate buffer, pH=7,4. The reaction was quenched with acetonitrile (100 µL of acetonitrile / 100 µL of the reaction mixture). After quenching, the samples were centrifuged at 10000 rpm for 10 minutes. Supernatant fluid was tested by chromatographic technique using Agilent1200 (Agilent, USA). Chromatographic analysis was performed in a gradient elution regime with a flow rate of 1 mL/min. A graph of the logarithm of substance's peak area as a function of time was made.

[4] = Chemical stability in human blood plasma; format: in vitro ADME; conditions: pooled human blood plasma; 10 µM; 4 hours at 37°C; substance amount in % after thermostatting
Experimental: Chemical stability of the compounds described herein was determined in simulated gastric fluid and human blood plasma.
Determination of stability in human blood plasma was performed using pooled human blood plasma taken from ten healthy donors. The initial candidate solution (10 mM in DMSO) was diluted with pooled blood plasma to a concentration of […] (test solution). The test solution was incubated in a dry block thermostat for 4 hours at 37°C. HPLC with Agilent 1200 liquid chromatography system (Agilent, USA) was employed to determine peak areas of the compounds in test samples, said peak areas corresponding to the initial test time (prior to incubation) and the final test time (after incubation in a dry block thermostat for 4 hours at 37°C), proteins were preliminarily precipitated with acetonitrile. Chromatographic analysis was performed in a gradient elution regime with a flow rate of 1 mL/min. Substance amount in % in a sample after thermostatting was determined.

Row | SMILES | efflux [1] | CC50 [2] [µM] | Stability in S9, Clint [3] [µL/min/mg] | Stability in blood plasma, % [4] [%]
1 | Cn1cc(-c2ccc(-c3cncc4ncc(C(=O)NCC5CC5)cc34)cc2)cn1 [CDK8-3-39] | 0.8 | 50.2 | – | –
2 | Cn1cc(-c2ccc(-c3cncc4ncc(C(=O)NC5CC5)cc34)cc2)cn1 [CDK8-3-37] | 1.0 | 98.2 | 10.05 | 100
